The values below come from patent US20230000774A1, “METHODS AND COMPOSITIONS PRODUCED THEREBY” (Albumedix Limited, priority 2019, published 2023).

The nature of series [1]: Stability study 1: HPLC-SEC rHA monomer levels in spray-dried powders at 40° C. In kind it is physicochemical. Conditions: liquid, stabiliser N/A, 0 weeks. The procedure: The spray dried powders were tested for their stability at 40° C. with monomer levels measured by HPLC size exclusion (HPLC-SEC).
Series [2] is described as follows: rHA SEC analysis pre and post filtration through 1.2 μm filter. In kind it is physicochemical. As for the experimental part: Size exclusion chromatography was performed on an Agilent 1100 series HPLC employing a TsK gel G3000SWXL (300×7.8 mm I.d., 5 μm) column, an isocratic flow of phosphate buffer (pH 7) at 1 mL/min with UV detection at 210 nm.
HPLC analysis of the AP1903 and SEC analysis of the rHA was undertaken on a sample of the formulation dissolved in D5W before and after filtration through a 1.2 μm filter. […] The remainder of the rHA being higher order structures.
(Size exclusion chromatography separates by hydrodynamic size, large species first.)

[3] abbreviates: formulation dissolved in D5W, 1.2 μm filter.

As for “Liquid: AlbIX recombinant human albumin, liquid, not spray dried”, the “rHA monomer level (HPLC-SEC)” value in series [1] worked out at 96.5.
Consider “rHA: recombinant human albumin, Albumedix”, for which, in series [2] (formulation dissolved in D5W), the “rHA Dimer, Pre-filtration” value is reported as 17% and the “rHA Monomer, Pre-filtration” value came to 81%. For the same substance, in series [2] (setting [3]), the “rHA Dimer, Post 1.2 filtration” value was 17% and the “rHA Monomer, Post 1.2 filtration” value was 81%. Further, in series [2] (stock rHA solution), the “rHA Dimer, Stock” value was found to be 3% and the “rHA Monomer, Stock” value turned out to be 97%.
